Laboratory results published in patent US8247609B2, “Aminoacid derivatives containing a disulfanyl group in the form of mixed disulfanyl and aminopeptidase N inhibitors” (Pharamleads, priority 2005, dated 2012).

What was measured:
male Sprague-Dawley rats = assay: Tail-flick test in rats; assay type: in vivo, rat; conditions: compound 15 5 mg/kg, Δ^9 THC 0.375 mg/kg, IV, ethanol/Tween 80/water, 10 min after injection
male OF1 mice = assay: Swim test (Porsolt) in mice; conditions: compound 15 5 mg/kg, Δ^9 THC 0.375 mg/kg, IV 10 min before test; total immobilization time measured for 4 minutes

| SMILES | Tail-flick test % analgesia (male Sprague-Dawley rats) [%] | Depression/swim test. Mobilization (male OF1 mice) |
| --- | --- | --- |
| CCCCCc1cc(O)c2c(c1)OC(C)(C)[C@@H]1CCC(C)=C[C@@H]21 [Δ^9 THC, Δ^9 tetrahydrocannabinol, reference compound] | 23.3 ± 2.4 | 206 ± 6.1 |
| CCOC(=O)OC(C)OC(=O)CNC(=O)C(CSSC[C@@H](N)CCSC)Cc1ccccc1 (stereo partly shown) [Compound 15] | −4.2 ± 1.9 | 180 ± 8.4 |
